{"source": "patent US8536121B2", "about": "“Methods and reagents for the diagnosis, prevention and treatment of insulin resistance using beta-arrestin2 and its up-regulators” (Shanghai Institutes for Biological Sciences, CAS, priority 2008, dated 2013)", "target": "T1, IR (Homo sapiens, UniProt P06213)", "T1 construct": "IR immunoprecipitated from Hep3B hepatocytes; endogenous in cells; host or cells: Hep3B", "experiment": "In vitro pull down of [35S]-βarrestin2 with IR immunoprecipitated from Hep3B hepatocytes", "format": "binding", "experimental": "FIGS. 12A-E show insulin stimulated the formation of Receptor/Akt/βarrestin2/Src signal complex. FIG. 12A, Direct interaction of βarrestin2 and IR. In vitro pull down assay was done using in vitro transcribed and translated [^35S]-βarrestin2 and IR immunoprecipitated from Hep3B hepatocytes. […] Hep3B hepatocytes were treated with or without 100 nM Wortmannin for 30 min, and then stimulated by 100nM insulin for 10 min. Immunoprecipitation by anti-IR or anti-Src followed by immunoblot with specific antibodies as indicated. Representative immunoblot was shown (n=3). FIG. 12E, Densitometry analysis of FIG. 6C. Data are presented as mean ±s.e.m. *P<0.05, **P<0.005, versus control."}
{"substance": "βarrestin2: full-length βarrestin2 protein, in vitro transcribed and translated for the pull down assay", "values": [{"measurement": "interaction between βarrestin2 and IR in vitro", "result": "direct interactions"}]}
